This note sets out measurements from the NIST ThermoML archive (doi:10.1016/j.jct.2019.04.018).

± gives the expanded uncertainty stated by the source.

For series [1] the following is noted: 100 kPa, Liquid; for viscosity: Capillary tube (Ostwald / Ubbelohde) method; for speed of sound: Frequency=2 MHz, Single path-length method; for mass density: Vibrating tube method.
Series [2] is described as follows: xn = mol fraction of the nth substance listed. The settings on record: 100 kPa, Liquid, x2 = 0; for viscosity: Capillary tube (Ostwald / Ubbelohde) method; for speed of sound: Frequency=2 MHz, Single path-length method; for mass density: Vibrating tube method.

On to `CCCCOCCCC` [dibutyl ether], for which, in series [1] (303.15 K), the viscosity is 0.602 ± 0.015 mPa·s, the speed of sound came out at 1144 ± 5 m/s and the mass density came out at 759.6 ± 1.1 kg/m3. In series [1] (308.15 K), the viscosity worked out at 0.564 ± 0.015 mPa·s, the speed of sound amounted to 1128 ± 5 m/s and the mass density is reported as 755.2 ± 1.1 kg/m3. Moreover, in series [1] (313.15 K), the viscosity came to 0.529 ± 0.014 mPa·s, the speed of sound was 1114 ± 5 m/s and the mass density was determined as 750.8 ± 1.1 kg/m3.
Regarding `CCCCOCCCC` [dibutyl ether] + C=COC(C)=O, in series [2] (303.15 K), the viscosity worked out at 0.602 ± 0.015 mPa·s, the speed of sound is recorded as 1144 ± 5 m/s and the mass density came out at 759.6 ± 1.1 kg/m3. Also, in series [2] (308.15 K), the viscosity was 0.564 ± 0.015 mPa·s, the speed of sound was found to be 1128 ± 5 m/s and the mass density was found to be 755.2 ± 1.1 kg/m3. In series [2] (313.15 K), the viscosity was 0.529 ± 0.014 mPa·s, the speed of sound was found to be 1114 ± 5 m/s and the mass density is 750.8 ± 1.1 kg/m3.
